Values quoted from earlier work, collected in US8629103B2, “Treatment of non-proliferative cystic disease of the breast” (New York University, priority 2010, dated 2014).
Entries after “also recorded” stand apart in the source; their conditions may differ.

By UniProt entry, the sequences of proteins in these tests, tags left out.
UniProt P30872, whole entry, species assumed: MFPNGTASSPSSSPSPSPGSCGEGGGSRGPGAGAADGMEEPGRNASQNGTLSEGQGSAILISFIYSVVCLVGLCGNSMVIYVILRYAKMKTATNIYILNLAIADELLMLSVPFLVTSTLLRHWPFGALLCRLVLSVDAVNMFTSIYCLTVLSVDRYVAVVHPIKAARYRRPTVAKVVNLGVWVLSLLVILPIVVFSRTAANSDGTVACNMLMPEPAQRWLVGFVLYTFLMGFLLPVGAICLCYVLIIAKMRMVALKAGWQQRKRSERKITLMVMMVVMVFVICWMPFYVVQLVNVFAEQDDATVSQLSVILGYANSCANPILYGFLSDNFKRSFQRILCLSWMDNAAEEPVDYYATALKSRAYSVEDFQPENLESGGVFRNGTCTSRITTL
UniProt P30874, whole entry, species assumed: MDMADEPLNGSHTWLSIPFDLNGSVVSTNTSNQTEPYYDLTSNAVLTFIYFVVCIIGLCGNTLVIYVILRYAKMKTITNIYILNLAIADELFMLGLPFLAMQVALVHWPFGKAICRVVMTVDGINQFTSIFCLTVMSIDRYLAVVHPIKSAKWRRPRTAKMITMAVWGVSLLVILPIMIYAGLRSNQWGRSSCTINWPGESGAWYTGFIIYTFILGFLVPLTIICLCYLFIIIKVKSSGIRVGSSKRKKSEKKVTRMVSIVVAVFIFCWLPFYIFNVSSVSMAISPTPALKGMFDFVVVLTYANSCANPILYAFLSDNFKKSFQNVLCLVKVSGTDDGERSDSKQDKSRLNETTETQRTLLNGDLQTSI
UniProt P32745, whole entry, species assumed: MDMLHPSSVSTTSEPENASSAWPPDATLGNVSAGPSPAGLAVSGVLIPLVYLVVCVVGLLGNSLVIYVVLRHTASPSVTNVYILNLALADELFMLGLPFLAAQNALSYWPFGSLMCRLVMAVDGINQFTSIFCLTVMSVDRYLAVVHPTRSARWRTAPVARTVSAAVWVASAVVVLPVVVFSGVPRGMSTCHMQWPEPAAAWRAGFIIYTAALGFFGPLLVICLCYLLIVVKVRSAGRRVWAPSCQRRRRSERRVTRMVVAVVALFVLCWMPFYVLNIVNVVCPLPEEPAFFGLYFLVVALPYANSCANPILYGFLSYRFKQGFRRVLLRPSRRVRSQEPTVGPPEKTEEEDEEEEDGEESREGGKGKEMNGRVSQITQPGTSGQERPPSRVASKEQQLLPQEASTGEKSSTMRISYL
UniProt P31391, whole entry, species assumed: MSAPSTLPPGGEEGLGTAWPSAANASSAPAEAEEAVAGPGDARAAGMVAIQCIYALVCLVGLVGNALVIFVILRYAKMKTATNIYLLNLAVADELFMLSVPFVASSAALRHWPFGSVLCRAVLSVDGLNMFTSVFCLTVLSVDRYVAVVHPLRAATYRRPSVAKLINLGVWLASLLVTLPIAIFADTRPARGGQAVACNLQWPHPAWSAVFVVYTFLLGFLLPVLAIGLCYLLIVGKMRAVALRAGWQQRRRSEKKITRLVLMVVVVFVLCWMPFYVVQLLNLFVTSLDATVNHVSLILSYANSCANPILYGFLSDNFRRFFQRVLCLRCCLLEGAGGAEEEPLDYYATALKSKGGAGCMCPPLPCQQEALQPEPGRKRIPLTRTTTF
UniProt P35346, whole entry, species assumed: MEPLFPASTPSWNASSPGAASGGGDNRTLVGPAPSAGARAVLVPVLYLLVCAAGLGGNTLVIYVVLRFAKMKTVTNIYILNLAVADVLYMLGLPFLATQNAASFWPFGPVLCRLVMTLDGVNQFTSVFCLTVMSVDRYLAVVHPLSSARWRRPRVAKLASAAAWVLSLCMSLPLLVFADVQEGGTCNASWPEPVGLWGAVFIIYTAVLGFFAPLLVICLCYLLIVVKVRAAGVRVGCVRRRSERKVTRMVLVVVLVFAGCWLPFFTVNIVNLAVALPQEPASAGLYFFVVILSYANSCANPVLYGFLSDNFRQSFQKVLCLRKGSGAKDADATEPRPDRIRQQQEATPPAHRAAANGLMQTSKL

Assays:
Conditions in all cases: cited from earlier work
SSTR-1 = SSTR-1 (Homo sapiens, UniProt P30872)
SSTR-2 = SSTR-2 (Homo sapiens, UniProt P30874)
SSTR-3 = SSTR-3 (Homo sapiens, UniProt P32745)
SSTR-4 = SSTR-4 (Homo sapiens, UniProt P31391)
SSTR-5 = SSTR-5 (Homo sapiens, UniProt P35346)

Substance | affinity for SSTR-1 (SSTR-1) | affinity for SSTR-2 (SSTR-2) | affinity for SSTR-3 (SSTR-3) | affinity for SSTR-4 (SSTR-4) | affinity for SSTR-5 (SSTR-5)
octreotide | low | high | relatively low; also recorded: moderate | moderate | relatively low; also recorded: moderate
vapreotide | low | high | relatively low; also recorded: moderate | moderate | relatively low; also recorded: moderate
